Experimental data: patent US20040023884A1, “Biologically active peptides from functional domains of bactericidal/permeability-increasing protein and uses thereof” (priority 1993, published 2004)

Tests used:
[1] = 3H-heparin binding assay (affinity and capacity)
Description: Briefly, each fragment was added to wells of a 96-well microtiter plate having a polyvinylidene difluoride membrane (Immunobilon-P, Millipore, Bedford, Mass.) disposed at the bottom of the wells. […] Positive control wells contained varying amounts of rBPI23. […] DuPont-NEN, Wilmington, Del.) were made in the blocking buffer and incubated in the BPI peptide-containing wells for one hour at 4° C. The unbound heparin was aspirated and the wells were washed three times with blocking buffer, dried and removed for quantitation in a liquid scintillation counter (Model 1217, LKB, Gaithersburg, Md.). Although BSA in the blocking buffer did show a low affinity and capacity to bind heparin, this was considered physiologically irrelevant and the background was routinely subtracted from the test compound signal.

[2] = test system: E. coli 0111:B4 (smooth) bacteria; assay: Radial diffusion bactericidal assay, E. coli 0111:B4; type: cell-based; conditions: PROBIT analysis
[3] = Lipid A binding competition with [125I]-rLBP
Description: A second binding assay was developed, wherein radiolabeled recombinant LPS binding protein ([^125I]-rLBP) was used instead of radiolabeled rBPI23 in competition experiments with BPI functional domain peptides BPI.2, BPI.3, BPI.4, BPI.5, BPI.7, BPI.13, BPI.14, BPI.29, BPI.30 and BPI.48, rBPI, rBPI21Δcys, and rLBP25 were included in these assays as controls. In these experiments, Lipid A was adsorbed to the wells at a concentration of 0.7 μg/mL in methanol. Incubation of radiolabeled rLBP (a total of 650,000 cpm and a specific activity of 3.45 μCi/μg) was performed for 2.5 hr at 37° C. in the presence of BPI peptides in a series of increasing concentrations. IC50 values (i.e., the concentration at which Lipid A binding of radiolabeled rLBP25 is inhibited to one half the value achieved in the absence of the peptide) are shown in accompanying Table XI.

RAW 264.7 cells = assay: LPS neutralization cellular proliferation assay, RAW 264.7 cells; type: cell-based, mouse
Description: In this assay, mouse RAW 264.7 cells (ATCC Accession No. T1B71), maintained in RPMI 1640 media (GIBCO), supplemented with 10 mM HEPES buffer (pH 7.4), 2 mM L-glutamine, penicillin (100U/mL), streptomcin (100 μg/mL), 0.075% sodium bicarbonate, […] 2-mercaptoethanol and 10% fetal bovine serum (Hyclone, Inc., Logan, Utah), were first induced by incubation in the presence of 50U/mL recombinant mouse y-interferon (Genzyme, Cambridge, Mass.) for 24 h prior to assay. Induced cells were then mechanically collected and centrifuged at 500×g at 4° C. and then resuspended in 50 mL RPMI 1640 media (without supplements), re-centrifuged and again resuspended in RPMI 1640 media (without supplements). The cells were counted and their concentration adjusted to 2×10^5 cells/mL and 100 μL aliquots were added to each well of a 96-well microtitre plate. The cells were then incubated for about 15 hours with E. coli O113 LPS (Control Standard. Assoc. of Cape Cod. Woods Hole, Mass.), which was added in 100 μL/well aliquots at a concentration of […] in serum-free RPMI 1640 media (this concentration being the result of titration experiments in which LPS concentration was varied between 50 pg/mL and 100 ng/mL). This incubation was performed in the absence or presence of BPI functional domain peptides in varying concentrations between 25 ng/mL and 50 μg/mL. Recombinant human BPI was used as a positive control at a concentration of 1 μg/mL. Cell proliferation was quantitatively measured by the addition of 1 μCi/well [^3H]-thymidine 5 hours after the time of initiation of the assay. After the 15-hour incubation, labeled cells were harvested onto glass fiber filters with a cell harvester (Inotech Biosystems, EQ-384, Sample Processing and Filter Counting System, Lansing, Mich.).

ATIII/heparin complexes = assay: Thrombin inactivation by ATIII/heparin complexes (Chromostrate anti-thrombin assay); type: biochemical; conditions: 1.0 to 100 μg/mL
Description: BPI functional domain peptides BPI.2, BPI.3, BPI.4, BPI.5, BPI.6, and BPI.8, along with rBPI23 as a positive control, were assayed for their effect on thrombin inactivation by ATIII/heparin complexes according to the method of Example 3 in copending and co-assigned U.S. patent application Ser. No. 08/093,202, filed Jul. 15, 1993, incorporated by reference. Specifically, a Chromostrate™ anti-thrombin assay kit (Organon Teknika Corp., Durham, N.C.) was used to examine the inhibition of purified thrombin by preformed ATIII/heparin complexes in plasma.
Briefly, the assay was performed in 96 well microtiter plates in triplicate with a final volume per well of 200 μL. Varying concentrations of the BPI functional domain peptides ranging from 1.0 μg/mL to 100 μg/mL were assayed to determine their effect on thrombin inhibition in the presence of pre-formed ATIII/heparin complexes. […] The colorimetric reaction was quantitated on a microplate reader as described in Example 3.

[4] = In vitro heparin-mediated lengthening of APTT / clotting time of heparinized plasma; type: biochemical, human; conditions: FIG. 12g
Description: In vitro, the effect of BPI combination functional domain peptides was determined on heparin-mediated lengthening of activated partial […] (APTT). The APTT is lengthened by the presence of endogenous or exogenous inhibitors of thrombin formation, such as therapeutically administered heparin. Thus, agents which neutralize the anti-coagulant effects of heparin will reduce the APTT measured by the test. Citrated human plasma (200 μL) was incubated for 1 minute at 37° C. with either 15 μL of diluent (0.15 M NaCl, 0.1 M Tris-HCl, pH 7.4) or 15 μL of the diluent also containing 25 μg/mL heparin (187 units/mg). Various concentrations (from 0.0 to 56 μg/mL) of rBPI23, rBPI21Δcys, or BPI combination peptides BPI.29 (the DIII homodimer) and BPI.30 (heterodimer DII+DIII) in a volume of 15 μL were added, followed immediately by 100 μL of thrombin reagent (Catalog No. 845-4, Sigma Chemical Co., St. Louis. MO). Clotting time ([…]) was measured using a BBL Fibrometer (Becton Dickenson Microbiology Systems, Cockeysville, Md.). […] FIG. 12e illustrates the results obtained with BPI.30 on a non-log scale.

CC[C@H](C)[C@H](NC(=O)[C@H](CCCCN)NC(=O)[C@H](CCCCN)NC(=O)[C@H](Cc1c[nH]cn1)NC(=O)[C@H](Cc1ccccc1)NC(=O)[C@H](CC(C)C)NC(=O)[C@H](CCC(N)=O)NC(=O)[C@@H](NC(=O)[C@H](CC(C)C)NC(=O)[C@H](Cc1c[nH]c2ccccc12)NC(=O)CNC(=O)[C@@H](NC(=O)[C@H](CCCCN)NC(=O)[C@H](CO)NC(=O)[C@H](CCCCN)NC(=O)[C@H](CO)NC(=O)[C@@H](NC(=O)[C@H](Cc1c[nH]cn1)NC(=O)[C@@H](NC(=O)[C@H](Cc1c[nH]cn1)NC(=O)[C@@H](N)C(C)C)C(C)C)[C@@H](C)CC)C(C)C)[C@@H](C)CC)C(=O)N[C@@H](CCC(=O)O)C(=O)O [BPI.5]
Kd [1]: 193 nM | Heparin Capacity ([1]; heparin bound at saturation): 177.6 ng | pmol added to well to achieve a 30 mm^2 bactericidal zone, E. coli O111:B4 [2]: 7,343.30 pmol | IC50 (inhibition of Lipid A binding of radiolabeled rLBP) [3]: 4.42 µg/mL | IC50 ([3]; read-out: IC50 (inhibition of Lipid A binding of radiolabeled rLBP)): 1700 nM | EC50 (peptide concentration at which the growth inhibitory effect of LPS was reversed by 50%) (RAW 264.7 cells): 5.3 ± 0.6 µg/mL | IC50 (peptide concentration at which RAW cell growth was inhibited by 50%) (RAW 264.7 cells): — (No proliferation decrease up to 50 μg/ml) | heparin neutralization effect (in words) (ATIII/heparin complexes): most significant heparin neutralization effects | effect on the clotting time of heparinized blood (in words) [4]: less of a decrease in clotting times
